Patent publication US20220125748A1, “HISTONE ACETYLTRANSFERASE (HAT) REGULATORS AND USES THEREOF” (The Trustees of Columbia University in the City of New York, priority 2019, published 2022)

The chains behind the UniProt entries cited, without tags or fusion partners.
UniProt Q09472, whole entry: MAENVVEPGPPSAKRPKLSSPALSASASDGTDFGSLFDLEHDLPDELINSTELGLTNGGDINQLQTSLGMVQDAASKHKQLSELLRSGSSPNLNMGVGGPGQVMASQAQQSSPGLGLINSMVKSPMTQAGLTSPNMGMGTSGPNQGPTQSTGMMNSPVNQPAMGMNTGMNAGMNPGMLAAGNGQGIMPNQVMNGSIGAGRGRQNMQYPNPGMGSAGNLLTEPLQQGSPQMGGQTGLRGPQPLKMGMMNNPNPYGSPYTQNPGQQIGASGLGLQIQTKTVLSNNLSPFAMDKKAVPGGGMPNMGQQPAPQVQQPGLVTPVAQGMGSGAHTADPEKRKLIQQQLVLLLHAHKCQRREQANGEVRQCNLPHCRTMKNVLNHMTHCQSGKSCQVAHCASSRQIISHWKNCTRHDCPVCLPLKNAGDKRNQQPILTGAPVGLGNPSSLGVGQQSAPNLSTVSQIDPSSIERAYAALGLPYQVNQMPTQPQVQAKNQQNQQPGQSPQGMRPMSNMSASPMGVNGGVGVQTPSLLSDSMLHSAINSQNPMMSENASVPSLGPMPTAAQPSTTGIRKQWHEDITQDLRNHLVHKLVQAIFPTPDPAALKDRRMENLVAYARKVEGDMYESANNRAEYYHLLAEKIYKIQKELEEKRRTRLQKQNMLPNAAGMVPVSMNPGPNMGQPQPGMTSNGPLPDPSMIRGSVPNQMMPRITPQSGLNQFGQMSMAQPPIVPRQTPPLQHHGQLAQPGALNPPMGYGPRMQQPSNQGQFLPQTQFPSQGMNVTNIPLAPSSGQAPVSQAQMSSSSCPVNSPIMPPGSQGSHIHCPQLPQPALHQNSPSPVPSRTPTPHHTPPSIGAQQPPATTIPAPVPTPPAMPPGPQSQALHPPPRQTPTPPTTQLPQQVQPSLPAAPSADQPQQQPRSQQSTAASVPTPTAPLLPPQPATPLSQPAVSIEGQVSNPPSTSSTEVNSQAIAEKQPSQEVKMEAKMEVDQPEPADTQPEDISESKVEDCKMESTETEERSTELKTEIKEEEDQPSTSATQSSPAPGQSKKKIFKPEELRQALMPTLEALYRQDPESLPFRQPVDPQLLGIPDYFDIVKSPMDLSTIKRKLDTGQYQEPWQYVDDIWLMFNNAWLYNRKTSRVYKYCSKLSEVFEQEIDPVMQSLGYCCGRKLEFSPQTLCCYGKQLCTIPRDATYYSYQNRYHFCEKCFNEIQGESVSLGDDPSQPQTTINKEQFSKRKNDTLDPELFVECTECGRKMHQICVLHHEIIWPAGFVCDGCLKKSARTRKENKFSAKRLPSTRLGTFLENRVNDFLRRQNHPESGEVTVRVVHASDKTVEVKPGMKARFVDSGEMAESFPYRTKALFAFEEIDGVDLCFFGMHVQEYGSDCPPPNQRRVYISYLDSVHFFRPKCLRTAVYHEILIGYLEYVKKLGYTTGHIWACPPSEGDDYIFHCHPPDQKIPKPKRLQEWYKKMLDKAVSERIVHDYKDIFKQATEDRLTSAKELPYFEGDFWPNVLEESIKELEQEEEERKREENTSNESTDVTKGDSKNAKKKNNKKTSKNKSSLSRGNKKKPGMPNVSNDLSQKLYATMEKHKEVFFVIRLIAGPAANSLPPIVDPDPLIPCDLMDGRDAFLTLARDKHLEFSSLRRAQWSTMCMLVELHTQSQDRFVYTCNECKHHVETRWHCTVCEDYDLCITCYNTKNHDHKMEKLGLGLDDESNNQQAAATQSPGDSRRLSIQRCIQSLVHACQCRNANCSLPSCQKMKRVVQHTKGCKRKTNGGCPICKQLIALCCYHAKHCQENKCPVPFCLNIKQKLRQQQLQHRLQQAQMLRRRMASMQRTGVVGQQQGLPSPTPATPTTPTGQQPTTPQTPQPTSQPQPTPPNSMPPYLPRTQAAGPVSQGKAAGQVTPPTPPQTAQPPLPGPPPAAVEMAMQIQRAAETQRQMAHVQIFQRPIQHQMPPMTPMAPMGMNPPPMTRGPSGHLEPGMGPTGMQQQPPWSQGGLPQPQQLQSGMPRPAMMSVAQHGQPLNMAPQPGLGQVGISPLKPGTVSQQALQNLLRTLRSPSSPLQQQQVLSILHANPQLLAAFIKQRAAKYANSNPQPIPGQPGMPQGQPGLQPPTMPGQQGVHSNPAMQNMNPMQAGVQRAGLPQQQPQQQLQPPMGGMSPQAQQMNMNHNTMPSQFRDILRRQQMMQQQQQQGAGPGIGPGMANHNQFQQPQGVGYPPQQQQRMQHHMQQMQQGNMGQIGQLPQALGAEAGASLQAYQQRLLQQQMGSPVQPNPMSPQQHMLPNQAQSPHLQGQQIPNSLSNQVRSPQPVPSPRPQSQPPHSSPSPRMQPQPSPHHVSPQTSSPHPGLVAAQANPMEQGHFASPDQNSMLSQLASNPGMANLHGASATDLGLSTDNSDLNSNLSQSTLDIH

Biological target: p300 (Homo sapiens, UniProt Q09472)
Assay: In vitro acetylation assay (p300, histone 3 Lys 18 / Lys 27, western blot)
Type: biochemical
Conditions: compound in DMSO, tested form: HCl

Compound: CCOc1cccc(OCCN(C)C)c1C(=O)Nc1ncc(Cl)cn1
- H3-Lys 27 EC50 (Lys 27 of histone 3, EC50 for activators): NO ACTIVITY
- H3-Lys 27 IC50 (Lys 27 of histone 3, IC50 for inhibitors): NO ACTIVITY
- EC50 (read-out: H3-Lys 18 EC50, Lys 18 of histone 3, EC50 for activators): 0.097 µM
